Protein sequences, listed by entry. Tags and fused reporters are not part of them. Residues count along the entry.
UniProt Q5S007, 970-2527 G2019S: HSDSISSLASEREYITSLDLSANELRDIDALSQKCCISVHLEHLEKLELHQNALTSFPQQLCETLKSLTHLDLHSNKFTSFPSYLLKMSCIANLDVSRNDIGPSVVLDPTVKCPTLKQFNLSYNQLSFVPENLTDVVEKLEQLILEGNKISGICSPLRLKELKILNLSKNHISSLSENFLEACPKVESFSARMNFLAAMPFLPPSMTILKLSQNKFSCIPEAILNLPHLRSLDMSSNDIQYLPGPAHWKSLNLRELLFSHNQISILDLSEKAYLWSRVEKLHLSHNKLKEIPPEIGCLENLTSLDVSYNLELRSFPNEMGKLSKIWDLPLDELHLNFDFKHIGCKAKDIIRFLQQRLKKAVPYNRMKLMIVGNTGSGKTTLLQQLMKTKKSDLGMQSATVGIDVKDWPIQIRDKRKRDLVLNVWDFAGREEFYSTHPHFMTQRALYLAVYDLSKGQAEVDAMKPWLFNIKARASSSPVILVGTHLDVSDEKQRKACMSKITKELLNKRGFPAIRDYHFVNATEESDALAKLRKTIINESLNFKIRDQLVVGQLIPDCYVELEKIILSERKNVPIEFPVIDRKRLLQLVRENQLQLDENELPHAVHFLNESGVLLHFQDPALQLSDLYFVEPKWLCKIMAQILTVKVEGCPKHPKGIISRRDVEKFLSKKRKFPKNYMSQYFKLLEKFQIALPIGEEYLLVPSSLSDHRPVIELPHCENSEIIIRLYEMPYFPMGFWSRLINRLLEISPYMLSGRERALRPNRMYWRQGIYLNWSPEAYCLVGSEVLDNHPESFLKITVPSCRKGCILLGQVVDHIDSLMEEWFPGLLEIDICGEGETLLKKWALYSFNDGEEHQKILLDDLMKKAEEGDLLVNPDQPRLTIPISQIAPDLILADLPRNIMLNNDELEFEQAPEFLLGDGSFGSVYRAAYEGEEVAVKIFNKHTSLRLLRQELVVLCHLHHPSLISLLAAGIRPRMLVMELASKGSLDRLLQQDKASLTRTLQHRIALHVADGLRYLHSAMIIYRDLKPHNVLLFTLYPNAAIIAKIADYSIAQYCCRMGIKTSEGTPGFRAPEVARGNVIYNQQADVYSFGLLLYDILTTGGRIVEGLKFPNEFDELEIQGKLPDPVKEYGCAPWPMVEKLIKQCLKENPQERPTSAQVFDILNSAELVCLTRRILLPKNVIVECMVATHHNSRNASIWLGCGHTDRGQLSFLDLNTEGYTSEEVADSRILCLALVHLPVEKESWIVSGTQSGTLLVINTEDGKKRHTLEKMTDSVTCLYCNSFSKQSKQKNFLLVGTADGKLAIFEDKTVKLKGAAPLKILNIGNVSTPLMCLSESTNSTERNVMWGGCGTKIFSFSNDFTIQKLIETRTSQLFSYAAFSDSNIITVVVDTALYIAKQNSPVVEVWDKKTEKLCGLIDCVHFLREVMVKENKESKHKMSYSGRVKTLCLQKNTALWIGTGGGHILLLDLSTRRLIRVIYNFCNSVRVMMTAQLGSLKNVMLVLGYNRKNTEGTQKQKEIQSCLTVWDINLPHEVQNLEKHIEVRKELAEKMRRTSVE

The target of this experiment is LRRK2 G2019S (Homo sapiens (Human), UniProt Q5S007, G2019S). Put plainly: Adapta Kinase Assay (LRRK2_IC50 assay). Format: biochemical. The settings on record: inhibition of LRRK2 G2019S. The method, then: In Adapta™ Kinase Assay (LRRK2_IC50 assay): the Kinase Reaction Buffer contained 5× Kinase Buffer S (Life Technologies, PV5213) and 2 mM DTT (Life Technologies, P2325).
The Adapta® universal kinase assay is a homogenous, fluorescent based immunoassay for the detection of ADP. In contrast to ATP depletion assays, the Adapta® assay is extremely sensitive to ADP formation such that a majority of the signal change occurs in the first 10-20% conversion of ATP to ADP. This makes the Adapta® universal kinase assay ideally suited for use with low activity kinases.
Prepare a 1× solution of kinase reaction buffer from the 5× Kinase Buffer S stock (listed above) by adding 2 ml of 5× stock to 8 ml of H2O to make 10 ml of 1× kinase reaction buffer. To this, add 20 μl of 1 M DTT.
Kinase reactions are performed in a 10 μl volume in low-volume 384-well plates. […] Other non—treated assay plates, while not tested, may also be suitable. The concentration of substrate in the assay is 100 μM, and the 1× kinase reaction buffer consists of 50 mM Tris-HCl pH8.5, 10 mM MgCl2, 1 mM EGTA, 0.01% Brij-35, and 2 mM DTT, plus any additional additives that may be required for a specific kinase. […] The plate is allowed to equilibrate at room temperature for at least 30 minutes before being read on a plate reader configured for Adapta™ TR-FRET.
The data presented in this document were generated using a BMG LABTECH PHERAstar plate reader using the appropriate filters and instrument settings for Adapta™. The Test Compounds are screened in 1% DMSO (final) in the well. For 8 point titrations, 5-fold serial dilutions are conducted from the starting concentration.
IC50 estimates were obtained using the software XLfit (IDBS Inc.).
The term IC50 denotes the concentration that gives 50% inhibition. Lower therefore signals higher potency. `CCN1CCCc2n[nH]c3ccnc1c23` [Example 17, 6-ethyl-6,7,8,9-tetrahydro-2H-1,2,5,6-tetraazabenzo[cd]azulene]: 810 nM corresponded to half-maximal inhibition (IC50). In other words, the sub-micromolar range.

Regarding `c1cc2[nH]nc3c2c(n1)N(C1CCC1)CCC3` [Example 22, 6-cyclobutyl-6,7,8,9-tetrahydro-2H-1,2,5,6-tetraazabenzo[cd]azulene], the IC50 is 140 nM.

The molecule `c1ccc2c(c1)CN(C1CCOCC1)c1nccc3[nH]nc-2c13` [Example 58] gave an IC50 of 74 nM. Against the preceding molecule, the IC50 is about 1.9-fold lower.
